Earlier results as cited in paper PMC11938273 (Journal of Chemical Information and Modeling, 2025).

Settings: positive CNS status indicates BBB penetration; ground truth from published human or, if not available, murine brain biodistribution data incl. blocking studies; ref Table S1 column Radiolabeled (SI refs 1-108); cited from earlier work

Compound | CNS status
CO[C@]12CC[C@@]3(C[C@@H]1C(C)(C)O)[C@H]1Cc4ccc(O)c5c4[C@@]3(CCN1CC1CC1)[C@H]2O5 | Positive
1-(1-(4-(4-Fluorophenyl)-4-oxobutyl)piperidin-4-yl)-3-methyl1H-benzo[d]imidazol-2(3H)-one | Positive
2,3-Dimethoxyphenyl)(1-(4-fluorophenethyl) piperidin-4-yl)methanol | Positive
2-(1-(6-((2-Fluoroethyl)(methyl)amino)naphthalen2-yl)ethylidene)malononitrile | Positive
2-Ethoxy-4-[2-({(1S)-3-methyl-1-[2- (1-piperidinyl)phenyl]butyl}amino)- 2-oxoethyl]benzoic acid | Negative
3-(2-Fluoroethyl)-8-(4-(4-fluorophenyl)-4-oxobutyl)-1-phenyl1,3,8-triazaspiro[4.5]decan-4-one | Positive
3-Fluoro-5-(pyridin-2-ylethynyl)benzonitrile | Positive
4-Fluoro-N-(2-(4-(2-methoxyphenyl)piperazin-1-yl)ethyl)- N-(pyridin-2-yl)benzamide | Positive
8-(3-fluoropropyl)-3-(4-iodophenyl)-, methyl ester, (1R,2S,3S,5S)- | Positive
8-Azabicyclo[3.2.1]octane-2-carboxylic acid | Positive
8-Cyclopentyl-3-(3-fluoropropyl)-1-propyl-1H-purine-2,6(3H,7H)-dione | Positive
(1-methylpiperidin-4-yl)methyl 8-amino-7-chloro-2,3-dihydrobenzo[b][1,4]dioxine-5-carboxylate | Positive
(1R,2S,3S,5S)-2-fluoroethyl 8-((E)-3-iodoallyl)-3-(4-iodophenyl)- 8-azabicyclo[3.2.1]octane-2-carboxylate | Positive
(1RS,2RS,4SR,5SR,7SR,9R)-9-butyl-7-(((SR)-3-hydroxy-2-phenylpropanoyl)oxy)-9-methyl-3-oxa-9-azatricyclo[3.3.1.02,4]nonan-9-ium | Negative
(2-{4-[(4-Chlorophenyl)(phenyl)methyl]-1-piperazinyl}ethoxy)acetic acid | Negative
(3α,4α,5α,8α,9β,11α,13α,14β,16β,17Z)- 16-Acetoxy-3,11-dihydroxy-4,8,14- trimethyl-18-norcholesta-17,24-dien- 21-oic acid | Negative
(4R,4aR,10bR)-9-hydroxy-4-propyl-3,4,4a,5,6,10b-hexahydro2H-naphtho[1,2-b] [1, 4]oxazin-4-ium | Positive
(5S)-5-(1-Benzofuran-7-yl)-8-chloro-2,3,4,5-tetrahydro-1H-3-benzazepin-7-ol | Positive
(6S,10bR)-6-(4-((fluoromethyl)thio)phenyl)-1,2,3,5,6,10bhexahydropyrrolo[2,1-a]isoquinoline | Positive
(6S,10bR)-6-(4-(methylthio)phenyl)-1,2,3,5,6,10bhexahydropyrrolo[2,1-a]isoquinoline | Positive
(E)-1,3,5-trimethyl-6-(3,4,5-trimethoxystyryl)-1,4a,5,7a-tetrahydro-2H-pyrrolo[2,3-d]pyrimidine-2,4(3H)-dione | Positive
(E)-3-((6-methylpyridin-2-yl)ethynyl)cyclohex-3- enone O-methyl oxime | Positive
(S)-5-(benzofuran-7-yl)-8-chloro-3-methyl-2,3,4,5-tetrahydro-1H-benzo[d]azepin-7-ol | Positive
(S)-5-Bromo-N-((1-ethylpyrrolidin-2-yl)methyl)-2,3- dimethoxybenzamide | Positive
(S)-8-Chloro-3-methyl-5-phenyl-2,3,4,5-tetrahydro1H-benzo[d]azepin-7-ol | Positive
N-(2-fluoroethyl)-2-(2-nitro-1H-imidazol-1-yl)acetamide | Positive
